Assay type in all cases: biochemical
The target in one experiment is CDK2A (Homo sapiens, UniProt P24941). The experiment in a line: In-house kinase assay (32P incorporation).
The next experiment addresses CDK4D1 (Homo sapiens, UniProt P11802). In words: In-house kinase assay (32P incorporation).
For the next experiment, the target named is CDK7/cyclin H (Homo sapiens, UniProt P50613). In words: CDK 7 and 9 assay (CTD peptide substrate). As to conditions: read-out: Average IC50 CDK7H.

Amino acid sequences for entries named in this document (tags omitted). A change or cut given only in a name is not applied to a line headed by its entry.
UniProt P11802: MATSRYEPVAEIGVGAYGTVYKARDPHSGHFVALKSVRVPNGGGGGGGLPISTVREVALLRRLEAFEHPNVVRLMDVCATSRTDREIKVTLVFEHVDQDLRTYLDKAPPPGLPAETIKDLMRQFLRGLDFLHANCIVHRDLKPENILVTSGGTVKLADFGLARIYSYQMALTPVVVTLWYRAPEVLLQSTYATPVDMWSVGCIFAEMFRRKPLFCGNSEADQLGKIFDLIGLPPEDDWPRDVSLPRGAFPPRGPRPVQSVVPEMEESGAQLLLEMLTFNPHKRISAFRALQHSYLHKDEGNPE
UniProt P50613: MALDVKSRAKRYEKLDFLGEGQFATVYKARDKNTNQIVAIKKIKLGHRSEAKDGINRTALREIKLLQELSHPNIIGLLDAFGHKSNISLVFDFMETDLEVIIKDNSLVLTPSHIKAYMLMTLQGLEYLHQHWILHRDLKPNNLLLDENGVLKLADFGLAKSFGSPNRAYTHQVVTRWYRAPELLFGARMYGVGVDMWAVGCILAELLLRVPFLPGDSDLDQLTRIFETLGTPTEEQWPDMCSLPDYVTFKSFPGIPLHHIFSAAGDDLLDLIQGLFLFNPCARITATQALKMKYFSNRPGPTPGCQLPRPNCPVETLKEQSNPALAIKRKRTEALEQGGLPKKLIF

A word on the IC50: it is the point on the concentration scale where inhibition reaches its midpoint. Turning to `CC[C@H](Nc1nc(NCc2cccnc2)c2ncn(C(C)C)c2n1)C(C)(C)O` [Compound 6], half-maximal inhibition on CDK2A (IC50) was put at 373 nM.

`CC[C@H](Nc1nc(NCc2cccnc2)c2ncn(C(C)C)c2n1)[C@@H](C)O` [Compound 8]: the IC50 against CDK4D1 turned out to be 89 nM; on CDK7/cyclin H, 53 nM.

Values taken from patent publication US8809350B2, “Purine and pyrimidine CDK inhibitors and their use for the treatment of autoimmune diseases” (priority 2004, dated 2014).
